Measurements from patent publication US20070179161A1, “Pyrazolopyrimidine compounds and their use in medicine” (VERNALIS (CAMBRIDGE) LIMITED., priority 2003, published 2007).
Like-named read-outs stand apart in the source and are kept apart here.

The chains behind the UniProt entries cited, without tags or fusion partners.
UniProt O15530, whole entry: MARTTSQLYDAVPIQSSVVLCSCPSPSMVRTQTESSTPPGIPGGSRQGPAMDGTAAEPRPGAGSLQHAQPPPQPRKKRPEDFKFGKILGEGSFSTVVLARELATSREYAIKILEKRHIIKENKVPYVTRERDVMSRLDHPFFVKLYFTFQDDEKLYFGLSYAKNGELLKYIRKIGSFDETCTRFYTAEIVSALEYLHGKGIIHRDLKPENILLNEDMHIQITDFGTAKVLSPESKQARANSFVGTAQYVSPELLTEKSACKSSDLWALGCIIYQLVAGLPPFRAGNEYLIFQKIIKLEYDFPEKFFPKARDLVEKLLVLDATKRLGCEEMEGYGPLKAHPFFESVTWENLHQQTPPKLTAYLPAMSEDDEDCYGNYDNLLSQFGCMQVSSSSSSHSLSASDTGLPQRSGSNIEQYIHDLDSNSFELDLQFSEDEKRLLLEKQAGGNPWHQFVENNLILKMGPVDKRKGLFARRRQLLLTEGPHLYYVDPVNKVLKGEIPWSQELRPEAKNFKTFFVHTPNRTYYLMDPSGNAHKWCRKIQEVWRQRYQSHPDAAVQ
UniProt O14757, whole entry: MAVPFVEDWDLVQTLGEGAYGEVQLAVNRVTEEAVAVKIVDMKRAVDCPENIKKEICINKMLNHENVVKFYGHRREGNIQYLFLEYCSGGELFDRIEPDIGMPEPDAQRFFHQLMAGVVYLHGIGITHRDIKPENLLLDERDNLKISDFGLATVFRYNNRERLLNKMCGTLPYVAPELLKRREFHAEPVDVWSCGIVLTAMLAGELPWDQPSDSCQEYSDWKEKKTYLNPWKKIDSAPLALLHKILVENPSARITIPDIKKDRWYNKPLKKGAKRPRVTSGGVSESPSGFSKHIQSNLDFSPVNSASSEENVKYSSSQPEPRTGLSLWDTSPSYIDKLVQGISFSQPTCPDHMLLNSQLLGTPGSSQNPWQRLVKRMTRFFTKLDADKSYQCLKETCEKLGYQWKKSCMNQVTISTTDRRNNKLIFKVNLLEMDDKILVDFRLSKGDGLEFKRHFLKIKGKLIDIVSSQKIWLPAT

Legend:
Type in all cases: biochemical
PDK1 enzyme = PDK1 enzyme (Homo sapiens, UniProt O15530); test: PDK1 kinase inhibition assay (33P phosphorylation of synthetic peptide, filter plate); details: read-out: PDK1 IC50, 0.01 mM ATP, 60 min at 30° C.
GST-Chk1 enzyme = GST-Chk1 enzyme (Homo sapiens, UniProt O14757); test: Chk1 kinase inhibition assay (33P phosphorylation of Chktide, filter plate); details: read-out: Chk1 IC50, 0.01 mM ATP, 11 nM GST-Chk1, 40 minutes at 30° C.
[1] = target: CDK-2 enzyme, complexed with cyclin A (Homo sapiens, UniProt P24941); test: CDK2 enzyme inhibition assay (33P phosphorylation of peptide […], filter plate); details: read-out: CDK2 IC50; CDK-2/cyclin A, 0.1 mM ATP, 40 min at 30° C.

For `CC(C)c1cnn2c(Nc3ccc(S(=O)(=O)N(C)CCO)cc3)cc(OCCN(C)C)nc12` [Example 39], the IC50 (PDK1 enzyme; tested form: HCl) was over 200 µM and the IC50 (GST-Chk1 enzyme; tested form: HCl) was 46.8 µM.
Work on `CCc1cnn2c(Nc3ccc(C(N)=O)cc3)cc(N[C@H]3CC[C@@H](N)CC3)nc12` yielded an IC50 (PDK1 enzyme) of 11.3 µM.
`N[C@H]1CC[C@H](Oc2cc(Nc3ccc(S(=O)(=O)c4ccccc4)cc3)n3ncc(Cl)c3n2)CC1` (relative stereo) was tested, and the IC50 [1] was 0.015 µM.
Work on `COc1cc(Nc2cc(N[C@H]3CC[C@H](N)CC3)nc3c(Br)cnn23)ccc1S(=O)(=O)N(C)C` yielded an IC50 (PDK1 enzyme) of 18 µM and an IC50 (GST-Chk1 enzyme) of 9 µM.
